Results published in PMC11870037 (Molecules, 2024).

Protein sequences, listed by entry. Tags and fused reporters are not part of them. Residues count along the entry.
UniProt Q63380, 1-617: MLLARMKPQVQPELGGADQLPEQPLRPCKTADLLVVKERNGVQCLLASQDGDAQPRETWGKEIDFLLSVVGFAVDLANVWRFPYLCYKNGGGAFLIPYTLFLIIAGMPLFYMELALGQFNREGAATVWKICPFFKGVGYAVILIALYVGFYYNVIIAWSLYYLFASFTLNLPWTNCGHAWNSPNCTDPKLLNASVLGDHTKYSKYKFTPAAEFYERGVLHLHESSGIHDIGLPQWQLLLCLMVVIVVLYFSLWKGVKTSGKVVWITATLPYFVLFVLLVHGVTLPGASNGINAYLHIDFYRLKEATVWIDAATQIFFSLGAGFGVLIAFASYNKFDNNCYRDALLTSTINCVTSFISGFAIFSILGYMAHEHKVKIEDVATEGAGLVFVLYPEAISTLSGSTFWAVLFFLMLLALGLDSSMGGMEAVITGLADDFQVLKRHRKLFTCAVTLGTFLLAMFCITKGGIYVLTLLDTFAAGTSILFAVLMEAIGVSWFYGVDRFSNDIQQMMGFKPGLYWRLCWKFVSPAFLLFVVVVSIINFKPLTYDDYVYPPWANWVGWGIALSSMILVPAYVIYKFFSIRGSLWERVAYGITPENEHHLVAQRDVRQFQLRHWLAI

Biological target: NET (Rattus norvegicus, UniProt Q63380)
Test: Monoamine uptake transporter assay, [3H]NE uptake by NET
Type: biochemical
Conditions: antagonist assay

`CNCCC(Oc1ccccc1OC)c1ccccc1` (stereo not shown) [Nisoxetine, reference compound] gave an IC50 of 37.4 nM.
